Results as given in patent publication US10357493B2, “Metalloenzyme inhibitor compounds” (Selenity Therapeutics (Bermuda), Ltd., priority 2017, dated 2019).

Chains of the proteins cited; added tags and fusions are not shown.
UniProt Q92769, whole entry: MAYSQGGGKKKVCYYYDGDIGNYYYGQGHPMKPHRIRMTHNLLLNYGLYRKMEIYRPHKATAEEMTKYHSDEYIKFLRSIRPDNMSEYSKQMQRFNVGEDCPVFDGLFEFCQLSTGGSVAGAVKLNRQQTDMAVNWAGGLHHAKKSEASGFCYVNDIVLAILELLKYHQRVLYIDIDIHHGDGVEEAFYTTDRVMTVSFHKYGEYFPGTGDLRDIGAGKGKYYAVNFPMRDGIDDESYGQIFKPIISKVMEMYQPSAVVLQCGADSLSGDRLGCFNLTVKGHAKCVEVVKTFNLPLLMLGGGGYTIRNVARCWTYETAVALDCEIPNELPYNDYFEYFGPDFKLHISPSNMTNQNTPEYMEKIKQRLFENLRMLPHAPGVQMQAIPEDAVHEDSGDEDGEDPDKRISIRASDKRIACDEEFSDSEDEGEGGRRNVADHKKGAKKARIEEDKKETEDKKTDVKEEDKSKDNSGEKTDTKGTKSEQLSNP
UniProt O15379, whole entry: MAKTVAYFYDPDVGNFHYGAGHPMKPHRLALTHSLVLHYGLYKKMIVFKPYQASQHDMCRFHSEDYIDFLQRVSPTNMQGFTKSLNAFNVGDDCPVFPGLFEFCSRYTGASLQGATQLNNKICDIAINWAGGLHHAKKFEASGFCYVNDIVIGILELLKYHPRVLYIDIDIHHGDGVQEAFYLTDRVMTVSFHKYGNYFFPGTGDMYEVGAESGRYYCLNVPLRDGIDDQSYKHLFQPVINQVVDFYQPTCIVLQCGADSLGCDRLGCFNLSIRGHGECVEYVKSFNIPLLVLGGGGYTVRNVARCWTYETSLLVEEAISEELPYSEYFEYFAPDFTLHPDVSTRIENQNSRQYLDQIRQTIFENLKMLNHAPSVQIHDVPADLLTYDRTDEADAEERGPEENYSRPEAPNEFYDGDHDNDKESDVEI
UniProt P56524, whole entry: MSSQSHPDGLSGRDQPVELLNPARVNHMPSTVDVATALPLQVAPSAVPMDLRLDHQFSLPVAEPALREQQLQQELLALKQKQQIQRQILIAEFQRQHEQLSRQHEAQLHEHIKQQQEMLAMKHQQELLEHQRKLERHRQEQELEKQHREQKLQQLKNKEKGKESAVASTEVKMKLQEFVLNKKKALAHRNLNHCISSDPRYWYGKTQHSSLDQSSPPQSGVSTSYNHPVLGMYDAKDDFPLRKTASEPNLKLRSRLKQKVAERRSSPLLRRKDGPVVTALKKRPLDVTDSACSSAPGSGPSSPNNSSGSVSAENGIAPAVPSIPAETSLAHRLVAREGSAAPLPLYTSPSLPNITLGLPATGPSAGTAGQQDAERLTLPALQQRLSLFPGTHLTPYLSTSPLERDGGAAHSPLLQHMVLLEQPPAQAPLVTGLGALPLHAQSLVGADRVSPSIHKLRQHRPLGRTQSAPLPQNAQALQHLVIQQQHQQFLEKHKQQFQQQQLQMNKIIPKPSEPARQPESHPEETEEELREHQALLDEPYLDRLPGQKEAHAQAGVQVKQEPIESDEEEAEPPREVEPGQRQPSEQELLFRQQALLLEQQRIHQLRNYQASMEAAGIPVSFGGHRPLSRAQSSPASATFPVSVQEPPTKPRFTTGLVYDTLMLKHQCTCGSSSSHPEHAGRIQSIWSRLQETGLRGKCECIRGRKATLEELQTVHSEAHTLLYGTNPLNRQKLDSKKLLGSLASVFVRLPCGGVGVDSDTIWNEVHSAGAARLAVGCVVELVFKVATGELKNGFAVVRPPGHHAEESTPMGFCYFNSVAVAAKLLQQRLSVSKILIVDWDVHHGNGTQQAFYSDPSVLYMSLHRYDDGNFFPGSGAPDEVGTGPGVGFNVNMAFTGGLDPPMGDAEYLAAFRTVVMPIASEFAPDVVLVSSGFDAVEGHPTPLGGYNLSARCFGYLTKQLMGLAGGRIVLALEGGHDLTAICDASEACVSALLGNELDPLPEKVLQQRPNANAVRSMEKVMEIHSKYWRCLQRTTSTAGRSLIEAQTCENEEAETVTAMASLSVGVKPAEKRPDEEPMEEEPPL
UniProt Q9UQL6, whole entry: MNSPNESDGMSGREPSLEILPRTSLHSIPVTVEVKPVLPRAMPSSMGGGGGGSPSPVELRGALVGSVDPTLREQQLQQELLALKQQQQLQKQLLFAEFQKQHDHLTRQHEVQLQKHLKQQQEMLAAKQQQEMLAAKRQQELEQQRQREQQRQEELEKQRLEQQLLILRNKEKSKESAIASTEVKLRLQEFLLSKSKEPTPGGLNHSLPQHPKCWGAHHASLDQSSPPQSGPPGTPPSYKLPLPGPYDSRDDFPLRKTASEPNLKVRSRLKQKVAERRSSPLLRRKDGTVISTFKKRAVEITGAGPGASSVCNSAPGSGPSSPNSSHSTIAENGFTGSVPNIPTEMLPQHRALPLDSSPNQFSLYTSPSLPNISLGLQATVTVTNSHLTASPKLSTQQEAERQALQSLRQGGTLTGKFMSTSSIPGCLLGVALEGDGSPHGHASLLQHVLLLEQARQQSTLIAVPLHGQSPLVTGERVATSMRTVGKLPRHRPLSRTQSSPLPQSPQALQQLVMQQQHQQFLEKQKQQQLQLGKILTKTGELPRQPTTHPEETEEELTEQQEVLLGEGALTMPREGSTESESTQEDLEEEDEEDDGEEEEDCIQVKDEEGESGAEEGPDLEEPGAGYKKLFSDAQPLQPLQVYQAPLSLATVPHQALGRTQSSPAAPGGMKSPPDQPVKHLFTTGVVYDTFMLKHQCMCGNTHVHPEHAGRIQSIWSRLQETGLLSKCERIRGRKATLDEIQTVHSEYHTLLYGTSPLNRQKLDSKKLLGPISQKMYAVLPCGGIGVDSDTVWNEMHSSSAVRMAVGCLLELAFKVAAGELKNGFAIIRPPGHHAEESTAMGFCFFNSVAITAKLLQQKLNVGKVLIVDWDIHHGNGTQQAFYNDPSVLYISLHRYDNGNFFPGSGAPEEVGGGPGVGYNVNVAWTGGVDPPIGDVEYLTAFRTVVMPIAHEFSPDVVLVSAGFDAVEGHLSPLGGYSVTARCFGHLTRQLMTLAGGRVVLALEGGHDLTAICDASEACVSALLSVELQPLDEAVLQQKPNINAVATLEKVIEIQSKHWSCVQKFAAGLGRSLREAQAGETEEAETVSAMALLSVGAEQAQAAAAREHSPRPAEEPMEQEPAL
UniProt Q8WUI4, whole entry: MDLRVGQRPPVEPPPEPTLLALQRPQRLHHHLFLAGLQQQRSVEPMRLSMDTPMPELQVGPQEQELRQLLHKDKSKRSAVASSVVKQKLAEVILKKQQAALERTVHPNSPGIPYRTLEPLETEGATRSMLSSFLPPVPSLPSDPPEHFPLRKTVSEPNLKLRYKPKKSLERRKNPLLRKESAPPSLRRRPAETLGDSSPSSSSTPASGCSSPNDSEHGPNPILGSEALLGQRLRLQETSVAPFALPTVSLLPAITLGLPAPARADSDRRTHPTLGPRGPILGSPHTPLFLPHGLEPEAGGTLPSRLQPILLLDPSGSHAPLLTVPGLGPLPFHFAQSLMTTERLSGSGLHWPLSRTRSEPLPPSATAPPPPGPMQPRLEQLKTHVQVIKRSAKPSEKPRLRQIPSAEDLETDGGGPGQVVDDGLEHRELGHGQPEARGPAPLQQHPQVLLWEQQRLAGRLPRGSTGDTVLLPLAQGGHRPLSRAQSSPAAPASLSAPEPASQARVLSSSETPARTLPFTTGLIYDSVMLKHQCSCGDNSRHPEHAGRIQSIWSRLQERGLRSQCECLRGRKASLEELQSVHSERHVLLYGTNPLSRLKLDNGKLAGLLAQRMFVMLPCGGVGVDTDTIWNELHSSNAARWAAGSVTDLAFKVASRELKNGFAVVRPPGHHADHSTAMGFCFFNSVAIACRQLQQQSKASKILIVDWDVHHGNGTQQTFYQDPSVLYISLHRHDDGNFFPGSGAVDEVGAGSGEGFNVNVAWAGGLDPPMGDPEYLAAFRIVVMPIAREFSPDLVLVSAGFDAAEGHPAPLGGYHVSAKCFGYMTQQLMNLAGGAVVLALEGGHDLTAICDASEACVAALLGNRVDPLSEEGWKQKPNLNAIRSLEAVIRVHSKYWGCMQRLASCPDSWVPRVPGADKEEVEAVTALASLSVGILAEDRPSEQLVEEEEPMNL
UniProt Q9BY41, whole entry: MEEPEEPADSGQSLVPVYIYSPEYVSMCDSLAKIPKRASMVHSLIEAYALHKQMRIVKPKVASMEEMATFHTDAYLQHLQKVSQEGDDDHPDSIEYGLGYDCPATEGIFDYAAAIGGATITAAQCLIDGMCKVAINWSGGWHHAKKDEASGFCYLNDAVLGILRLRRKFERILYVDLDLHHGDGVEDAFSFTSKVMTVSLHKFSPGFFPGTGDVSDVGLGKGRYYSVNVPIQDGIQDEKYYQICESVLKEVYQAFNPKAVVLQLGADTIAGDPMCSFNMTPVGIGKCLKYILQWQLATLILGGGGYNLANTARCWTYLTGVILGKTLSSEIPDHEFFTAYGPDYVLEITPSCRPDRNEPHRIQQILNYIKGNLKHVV
UniProt Q9UKV0, whole entry: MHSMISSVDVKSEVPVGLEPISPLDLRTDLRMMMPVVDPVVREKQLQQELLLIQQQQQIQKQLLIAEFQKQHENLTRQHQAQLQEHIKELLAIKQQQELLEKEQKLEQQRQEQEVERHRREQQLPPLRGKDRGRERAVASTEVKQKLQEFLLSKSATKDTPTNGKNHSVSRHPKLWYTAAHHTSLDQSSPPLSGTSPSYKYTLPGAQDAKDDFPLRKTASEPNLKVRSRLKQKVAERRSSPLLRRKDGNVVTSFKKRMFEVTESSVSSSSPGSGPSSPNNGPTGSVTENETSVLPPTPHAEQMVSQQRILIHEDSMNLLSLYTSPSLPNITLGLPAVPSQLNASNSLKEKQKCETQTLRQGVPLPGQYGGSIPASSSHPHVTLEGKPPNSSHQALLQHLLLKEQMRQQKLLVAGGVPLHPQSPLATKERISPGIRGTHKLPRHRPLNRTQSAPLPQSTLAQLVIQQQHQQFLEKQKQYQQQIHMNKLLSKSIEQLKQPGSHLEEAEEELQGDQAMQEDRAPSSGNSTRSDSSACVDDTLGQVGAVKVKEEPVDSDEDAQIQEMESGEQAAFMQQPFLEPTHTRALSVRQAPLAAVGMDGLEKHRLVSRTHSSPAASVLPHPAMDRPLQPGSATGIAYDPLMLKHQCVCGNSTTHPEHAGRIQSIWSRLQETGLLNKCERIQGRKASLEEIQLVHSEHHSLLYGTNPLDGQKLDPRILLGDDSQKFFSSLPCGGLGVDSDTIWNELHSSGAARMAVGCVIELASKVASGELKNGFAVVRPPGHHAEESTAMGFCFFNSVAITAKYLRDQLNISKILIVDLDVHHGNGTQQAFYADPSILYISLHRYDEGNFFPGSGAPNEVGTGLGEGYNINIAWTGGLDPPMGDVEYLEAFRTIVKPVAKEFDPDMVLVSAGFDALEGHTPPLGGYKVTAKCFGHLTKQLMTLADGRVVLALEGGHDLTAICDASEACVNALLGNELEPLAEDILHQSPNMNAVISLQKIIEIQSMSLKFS
UniProt Q969S8, whole entry: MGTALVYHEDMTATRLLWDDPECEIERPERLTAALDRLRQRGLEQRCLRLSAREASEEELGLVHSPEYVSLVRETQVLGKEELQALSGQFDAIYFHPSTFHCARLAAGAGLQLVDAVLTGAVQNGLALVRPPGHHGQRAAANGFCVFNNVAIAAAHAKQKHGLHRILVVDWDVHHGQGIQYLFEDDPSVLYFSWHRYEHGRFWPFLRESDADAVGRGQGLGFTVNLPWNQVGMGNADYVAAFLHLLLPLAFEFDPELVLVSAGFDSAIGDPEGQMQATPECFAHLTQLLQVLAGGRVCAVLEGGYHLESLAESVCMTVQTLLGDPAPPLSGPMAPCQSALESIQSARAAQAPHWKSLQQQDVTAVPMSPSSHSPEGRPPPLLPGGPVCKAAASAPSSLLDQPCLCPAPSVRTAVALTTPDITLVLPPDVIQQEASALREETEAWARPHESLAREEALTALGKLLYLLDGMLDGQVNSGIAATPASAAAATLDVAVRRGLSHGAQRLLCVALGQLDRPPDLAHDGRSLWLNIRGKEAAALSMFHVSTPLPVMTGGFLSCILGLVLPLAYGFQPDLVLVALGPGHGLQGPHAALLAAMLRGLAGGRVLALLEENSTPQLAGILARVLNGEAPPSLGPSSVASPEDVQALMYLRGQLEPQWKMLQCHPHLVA
UniProt Q96DB2, whole entry: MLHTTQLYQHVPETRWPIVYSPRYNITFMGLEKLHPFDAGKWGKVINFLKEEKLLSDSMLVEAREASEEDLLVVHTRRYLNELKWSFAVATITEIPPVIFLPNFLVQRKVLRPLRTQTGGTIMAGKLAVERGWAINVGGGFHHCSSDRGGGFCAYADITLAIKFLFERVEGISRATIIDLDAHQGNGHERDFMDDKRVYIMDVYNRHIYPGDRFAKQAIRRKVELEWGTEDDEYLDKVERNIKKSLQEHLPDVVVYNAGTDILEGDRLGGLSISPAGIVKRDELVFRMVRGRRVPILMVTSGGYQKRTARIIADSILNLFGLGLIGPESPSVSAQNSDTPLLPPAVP

How the values were obtained:
HDAC2 = HDAC2 (Homo sapiens (Human), UniProt Q92769); assay: HDAC2 enzymatic assay; details: read-out: HDAC2 IC50; Comparison Results
HDAC3/NCOR2 = HDAC3/NCOR2 (Homo sapiens (Human), UniProt O15379); assay: HDAC3 enzymatic assay; details: read-out: HDAC3 IC50; Comparison Results
HDAC4 = HDAC4 (Homo sapiens (Human), UniProt P56524); assay: HDAC4 enzymatic assay; details: read-out: HDAC4 IC50; Comparison Results
HDAC5 = HDAC5 (Homo sapiens (Human), UniProt Q9UQL6); assay: HDAC5 enzymatic assay; details: read-out: HDAC5 IC50; Comparison Results
HDAC7 = HDAC7 (Homo sapiens (Human), UniProt Q8WUI4); assay: HDAC7 enzymatic assay; details: read-out: HDAC7 IC50; Comparison Results
HDAC8 = HDAC8 (Homo sapiens (Human), UniProt Q9BY41); assay: HDAC8 enzymatic assay; details: read-out: HDAC8 IC50; Comparison Results
HDAC9 = HDAC9 (Homo sapiens (Human), UniProt Q9UKV0); assay: HDAC9 enzymatic assay; details: read-out: HDAC9 IC50; Comparison Results
HDAC10 = HDAC10 (Homo sapiens (Human), UniProt Q969S8); assay: HDAC10 enzymatic assay; details: read-out: HDAC10 IC50; Comparison Results
HDAC11 = HDAC11 (Homo sapiens (Human), UniProt Q96DB2); assay: HDAC11 enzymatic assay; details: read-out: HDAC11 IC50; Comparison Results

Row | IC50 (HDAC2) | IC50 (HDAC3/NCOR2) | IC50 (HDAC4) | IC50 (HDAC5) | IC50 (HDAC7) | IC50 (HDAC8) | IC50 (HDAC9) | IC50 (HDAC10) | IC50 (HDAC11) | SMILES
1 | > 30 µM | > 30 µM | > 30 µM | > 30 µM | > 30 µM | > 30 µM | > 30 µM | > 30 µM | > 30 µM | FC(F)(F)c1nnc(-c2cnc(NC3(c4ccccc4)CC3)nc2)o1 [Example 1, N-(1-phenylcyclopropyl)-5-(5-(trifluoromethyl)-1,3,4-oxadiazol-2-yl) pyrimidin-2-amine]
2 | > 30 µM | > 30 µM | > 30 µM | > 30 µM | > 30 µM | > 30 µM | > 30 µM | > 30 µM | > 30 µM | FC(F)c1nnc(-c2cnc(NC3(c4ccccc4)CC3)nc2)o1 [Example 4, 5-(5-(difluoromethyl)-1,3,4-oxadiazol-2-yl)-N-(1-phenylcyclopropyl)pyrimidin-2-amine]
